# Experimental data: PubChem BioAssay AID555 (SRMLSC, 2006)
# Only a part is listed here, and it is no random draw. Active and inactive are the calls of the source.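 The calls were made as follows: active = ranked among the strongest by inhibition in the single 10 µM screen, a fixed top-ranked set picked for dose follow-up; inactive = the rest, inconclusive results apart.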
# System: mevalonate kinase [Streptococcus pneumoniae D39]
# Experiment: pneumococcal mevalonate kinase activity blockers – biochemical, PK/LDH-coupled NADH absorbance, primary screen (AID 555)
# Conditions: purified MK, PK/LDH-coupled NADH absorbance 340 nm; at 10 µM; active compounds read high
row,SMILES,inhibition
1,O=P(Nc1nccs1)(c1ccccc1)c1nc2ccccc2s1 (stereo unspecified),active: 92%
